These are literature values, as cited in PMC5394958 (Haematologica, 2016).

The test system of one series is T315I BCR-ABL1 mutation. The conditions noted are these: cited from earlier work.
Series [1] relates to VEGF receptors 1, 2, and 3. The conditions noted are these: patients; cited from earlier work.

As for `Cc1nc(Nc2ncc(C(=O)Nc3c(C)cccc3Cl)s2)cc(N2CCN(CCO)CC2)n1` [dasatinib], in the series with T315I BCR-ABL1 mutation, the “effectiveness against the T315I BCR-ABL1 mutation” value is reported as “not effective”. As to `CCN(CC)CCNC(=O)c1c(C)[nH]c(/C=C2\C(=O)Nc3ccc(F)cc32)c1C` [sunitinib], the “plasma levels of VEGF and PlGF” value in series [1] is “increases”.
